Earlier results as cited in PMC8819907 (Journal of Experimental & Clinical Cancer Research : CR, 2022).
Read-outs that look alike come from different tables or passages of the source.

Legend:
[1] = tested on: patients with advanced melanoma; details: cited from earlier work; for Anemia / Increased alanine aminotransferase (ALT) / Increased alkaline phosphatase / Increased aspartate aminotransferase (AST): laboratory abnormality
[2] = tested on: patients with advanced solid tumors; details: cited from earlier work
[3] = tested on: patients in clinical trials of trametinib; details: cited from earlier work

CC(=O)Nc1cccc(-n2c(=O)n(C3CC3)c(=O)c3c(Nc4ccc(I)cc4F)n(C)c(=O)c(C)c32)c1 [Trametinib, equimolecular combination of acetamide, N-[3-[3-cyclopropyl-5-[(2-fluoro-4-iodophenyl)amino]-3,4,6,7-tetrahydro6,8-dimethyl-2,4,7-trioxopyrido[4,3-d]pyrimidin-1(2H)-yl]phenyl] with 1,1’-sulfinylbis[methane]]
cardiomyopathy ([1]; 14/211 patients): 7% | Abdominal pain ([1]; All Grades): 13% | Dermatitis acneiform ([1]; All Grades): 19% | Diarrhea ([1]; All Grades): 43% | Dry skin ([1]; All Grades): 11% | Hemorrhage ([1]; All Grades): 13% | Hypertension ([1]; All Grades): 15% | Lymphedema ([1]; All Grades): 32% | Paronychia ([1]; All Grades): 10% | Rash ([1]; All Grades): 57% | Abdominal pain ([1]; Grades 3 and 4): 1% | Dermatitis acneiform ([1]; Grades 3 and 4): < 1% | Diarrhea ([1]; Grades 3 and 4): 0% | Dry skin ([1]; Grades 3 and 4): 0% | Hemorrhage ([1]; Grades 3 and 4): < 1% | Hypertension ([1]; Grades 3 and 4): 12% | Lymphedema ([1]; Grades 3 and 4): 1% | Paronychia ([1]; Grades 3 and 4): 0% | Rash ([1]; Grades 3 and 4): 8% | Anemia ([1]; All Grades): 38% | Increased alanine aminotransferase (ALT) ([1]; All Grades): 39% | Increased alkaline phosphatase ([1]; All Grades): 24% | Increased aspartate aminotransferase (AST) ([1]; All Grades): 60% | Anemia ([1]; Grades 3 and 4): 2% | Increased alanine aminotransferase (ALT) ([1]; Grades 3 and 4): 3% | Increased alkaline phosphatase ([1]; Grades 3 and 4): 2% | Increased aspartate aminotransferase (AST) ([1]; Grades 3 and 4): 2% | median onset of cardiomyopathy ([1]; range: 16 to 156 days): 63 days | RP2D for single agent [2]: 2 mg/day | Grade 4 cardiac-related AEs ([3]; 2.0 mg monotherapy): no subjects | grade 3 cardiac-related AEs ([3]; 2.0 mg monotherapy): 18 subjects | cases of RVO ([3]; entire trametinib program as of 23 June 2013): four cases
